{"source": "patent USRE49949E1", "about": "“Reducing risk of contracting clostridium-difficile associated disease” (The Board of Regents of the Nevada System of Higher …, priority 2012, dated 2024)", "tested_on": "C. difficile strain 630 spores", "test": "CamSA dosage timing in CDI prevention", "conditions": "300 mg/Kg after spore challenge", "data": [{"smiles": "C[C@H](CCC(=O)Nc1cccc(S(=O)(=O)O)c1)[C@H]1CC[C@H]2[C@@H]3[C@H](O)C[C@@H]4C[C@H](O)CC[C@]4(C)[C@H]3C[C@H](O)[C@]12C", "note": "[CamSA, 3-[(3α,7α,12α-trihydroxy-24-oxo-5β-cholan-24-yl)amino]benzenesulfonic acid]", "values": [{"measurement": "window for CamSA to be effective in CDI prevention", "value": "≥ 6", "unit": "h"}]}]}
